Laboratory results from publication PMC9260860 (Biochemistry, 2021).

Substrate: C[C@H]1O[C@@H](n2cnc3c(N)ncnc32)[C@H](O)[C@@H]1O
Experiment: Enzymatic assay for HpAFLDA deaminase activity
Type: biochemical, H. pylori strain J99
Settings: other: deamination by HpAFLDA, 50 mM HEPES pH 7.0, 25 °C

B1: HpAFLDA (jhp0252) (Helicobacter pylori J99) (protein)
chain: MQEIIGASLVFLCNEKCEVLEDYGVVFDEKIVEIGDYHNLTLKYPHLKAQFFENSVLLPAFINAHTHFEFSNNKASFDYGSFSGWLGSVLNNGGAILENCQGAIQNAIMAQLKSGVGSVGAISNHLIEVNLLKESPLNAVVFLEFLGSSYSLEKLKAFEAKFKELKDLEDQKLKAALAVHAPYSVQKDMALSVIQLAKDSQSLLSTHFLESLEELEWVENSKGWFENFYQRFLKESNFTSLYEGANDYIDMFKDTHTLFVHNQFASLEALKRIKSQVKNAFLITCPFSNRLLSGKALDLERVREAGLSVSVATDGLSSNISLSLLDELRAFLLSHNMPLLELAKIALLGATRHGAKALALNNGEIETNKRADLSVFGFNEKFTKEQAILQFLLHAKEVERLFLGGKRVI
Km: 130 ± 50 µM
